Legend:
[1] = target: T1, preformed EBV gHgL/gp42 complex (wild-type gp42) (Epstein-Barr virus, UniProt P03231;P03212;P03205); test: BLI; settings: both partners purified
T1 construct: also called gHgL/gp42 wt; gHgL/gp42 complexes; source: purified gHgL (SF+ cells) and gp42 (High Five cells) mixed, complex isolated by gel filtration chromatography; copies: + +

[2] = target: T2, EBV gp42 wild type, soluble (residues 33-223) (Epstein-Barr virus, UniProt P03205 33-223); test: BLI; settings: both partners purified
T2 construct: also called gp42 w.t; wt gp42; source: High Five insect cells (baculovirus), secreted, purified (Talon or Ni-NTA, Superdex 200)
T2 sequence: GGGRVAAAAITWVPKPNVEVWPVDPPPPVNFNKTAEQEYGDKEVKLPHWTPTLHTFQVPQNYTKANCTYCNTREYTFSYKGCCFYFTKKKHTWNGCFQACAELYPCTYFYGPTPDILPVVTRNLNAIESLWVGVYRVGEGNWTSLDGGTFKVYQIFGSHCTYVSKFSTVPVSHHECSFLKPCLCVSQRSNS

B1: HLA-DQ2 (A1*0501/B1*0201) with the CLIP1 peptide covalently linked to the beta chain, soluble, Fos-Jun leucine zipper (peptide-MHC)
chain 1: EDIVADHVASYGVNLYQSYGPSGQYTHEFDGDEQFYVDLGRKETVWCLPVLRQFRFDPQFALTNIAVLKHNLNSLIKRSNSTAATNEVPEVTVFSKSPVTLGQPNILICLVDNIFPPVVNITWLSNGHSVTEGVSETSFLSKSDHSFFKISYLTLLPSAEESYDCKVEHWGLDKPLLKHWEPEIPAPMSELTE
chain 2: RDSPEDFVYQFKGMCYFTNGTERVRLVSRSIYNREEIVRFDSDVGEFRAVTLLGLPAAEYWNSQKDILERKRAAVDRVCRHNYQLELRTTLQRRVEPTVTISPSRTEALNHHNLLVCSVTDFYPAQIKVRWFRNDQEETAGVVSTPLIRNGDWTFQILVMLEMTPQRGDVYTCHVEHPSLQSPITVEWRAQSESAQSK
chain 3: PVSKMRMATPLLMQA
modifications: biotin on the C-terminal BirA site (enzymatic, for the BLI experiments)
Kd [1]: 120 nM
Kd [2]: 53 nM

— PMC4140853 (PLoS Pathogens, 2014)
